## Measured vapor pressure values of organic chemicals

Source: data files of OPERA 2.9 (Mansouri et al.), github.com/kmansouri/OPERA.

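The OPERA project collected these measurements from public sources as training and test data for property models. One number stands for a compound and property, with no spread given. Conditions of the individual experiments are not part of the data. The measured form (salt, isomer or mixture) is not always the one drawn. Some entries may be limits or estimates that an upstream database listed as plain numbers.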

Vapor pressures (log10 mmHg) refer to near room temperature, 15 to 30 °C; higher is more volatile.
The databases behind each value are named after "via".

structure (SMILES)	log VP (log10 mmHg)	via
O=S(=O)(O)CS(=O)(=O)O	-7.783	eChemPortal
C#CC1(OC(C)=O)CCCCC1	-0.771	eChemPortal
O=C1CCCCCCCCCCC1	-2.318	OCHEM, eChemPortal
CNC(=O)Nc1nc2ccccc2s1	-5.011	OCHEM
CC1=CC(=O)CC(C)(C)C1=O	-1.173	eChemPortal
COc1cc(Br)c(CCC#N)cc1OC	-5.663	eChemPortal
Clc1cc(Cl)cc(-c2ccccc2Cl)c1	-3.565	OCHEM
C=CC(CC)CO (stereo unspecified)	-0.07	eChemPortal
COc1cccc(Cl)c1Cl	-3.455	OCHEM
Clc1cc(Cl)c(-c2c(Cl)ccc(Cl)c2Cl)c(Cl)c1Cl	-4.943	OCHEM
C[Si](C)(CCCN)N1CCC[Si]1(C)C	-0.672	eChemPortal
CCCCC(=O)N(Cc1ccc(-c2ccccc2-c2nn[nH]n2)cc1)[C@H](C(=O)OCc1ccccc1)C(C)C	-8.886	eChemPortal
Clc1cc(Cl)c2cc(Cl)cc(Cl)c2c1	-3.504	OCHEM
C[C@@H]1C[C@H]2[C@@H]3CCC4=CC(=O)CC[C@]4(C)[C@H]3CC[C@]2(C)[C@H]1C(=O)CO	-9.227	eChemPortal
O=CC1CCCSC1 (stereo unspecified)	-0.958	eChemPortal
CC(C)[C@H]1CC=C(CCC=O)CC1	-1.016	eChemPortal
COC(=O)CC1CCCCC1	-0.462	eChemPortal
CCC(Cc1ccccc1)(C(=O)c1ccc(N2CCOCC2)cc1)N(C)C (stereo unspecified)	-8.236	eChemPortal
CC(O)CN(C)C (stereo unspecified)	1.009	eChemPortal
CCc1cccc2c(CCO)c[nH]c12	-5.512	eChemPortal
Brc1ccc(Oc2c(Br)cc(Br)cc2Br)cc1	-5.433	OCHEM
CCOc1ccc(C(=O)O)cc1	-3.272	eChemPortal
O=C(O)c1cc(C(=O)O)cc(C(=O)O)c1	-14.96	eChemPortal
Cc1cc[nH]n1	0.198	eChemPortal
Cc1nccn1C	-0.687	eChemPortal
C=C[Si](OC(C)=O)(OC(C)=O)OC(C)=O	-1.7	eChemPortal
COc1ccc(CC(C#N)C(=O)O)cc1OC (stereo unspecified)	-7.401	eChemPortal
CCCCCCCCCCCC(=O)N(CCO)CCO	-4.658	eChemPortal
CCC1CCC(c2ccc(-c3cc(F)c(C(F)(F)Oc4cc(F)c(F)c(F)c4)c(F)c3)cc2)OC1 (stereo unspecified)	-8.709	eChemPortal
C=COCCCCCCCCCCCCCCCCCC	-5.305	eChemPortal
CCCCC(CC)COC(=O)CC#N (stereo unspecified)	-2.491	eChemPortal
CCCCCCCCCCCCC1CO1 (stereo unspecified)	-2.879	eChemPortal
CCCCCCCCCCCCCCCCCCNC(=O)/C=C\C(=O)O	-5.152	eChemPortal
CCOC(=O)CC1C=CCC1 (stereo unspecified)	-0.052	eChemPortal
CN(C)C(N)=O	-4.346	eChemPortal
FC(F)(F)C1(F)C(F)(F)C(F)(F)C1(F)C(F)(F)F (stereo unspecified)	2.595	ICF
CCCCOCC(C)OCC(C)O (stereo unspecified)	-1.386	eChemPortal
COC(C)(C)CCO	-0.222	eChemPortal
CCOC(=O)/C=C(\NC)C(F)(F)F	-0.023	eChemPortal
CC(C)=CCCC(C)CCOC=O (stereo unspecified)	-1.523	eChemPortal
O=C(O)C(CCBr)(c1ccccc1)c1ccccc1	-6.002	eChemPortal
CCO[Si](CCC1CCC2OC2C1)(OCC)OCC (stereo unspecified)	-2.401	eChemPortal
CCCCCCCCCCCCCC[Si](C)(Cl)Cl	-3.417	eChemPortal
C=C(C)C(=O)OCCOCCC[Si](C)(C)O[Si](C)(C)O[Si](C)(C)O[Si](C)(C)O[Si](C)(C)CCCC	-5.058	eChemPortal
CO[C@H]1C[C@H](O[C@H]2[C@H](C)O[C@@H](O[C@@H]3C(C)=CC[C@@H]4C[C@@H](C[C@]5(C=C[C@H](C)[C@@H](C6CCCCC6)O5)O4)OC(=O)[C@@H]4C=C(C)[C@@H](O)[C@H]5OCC(=CC=C[C@@H]3C)[C@]54O)C[C@@H]2OC)O[C@@H](C)[C@@H]1O	-6.28	eChemPortal
Clc1cccc(-c2cc(Cl)cc(Cl)c2)c1	-3.975	OCHEM
C[Si](C)(Cl)CCl	1.509	eChemPortal
CC(C)c1cc(C(C)C)c(N=C=O)c(C(C)C)c1N=C=O	-3.037	eChemPortal
CC(C)(C)c1cc(-c2cc(C(C)(C)C)cc(C(C)(C)C)c2O)c(O)c(C(C)(C)C)c1	-7.084	eChemPortal